Measurements as given in patent US20230375531A1 (MIT, published 2023).

Target: biotinylated monoFc-ACE2 receptor (human ACE2 residues 19-615 with N-terminal monoFc) (human, UniProt Q9BYF1 19-615)

B1: bare cellulose binding domain (CBD) (other, Hungateiclostridium thermocellum, UniProt Q06851 364-522, looked up)
chain: PVSGNLKVEFYNSNPSDTTNSINPQFKVTNTGSSAIDLSKLTLRYYYTVDGQKDQTFWCDHAAIIGSNGSYNGITSNVKGTFVKMSSSTNNADTYLEISFTGGTLEPGAHVQIQGRFAKNDWSNYTQSNDYSFKSASQFVEWDQVTAYLNGVLVWGKEP
- binding result: no binding
